Assay results published in patent US6399782B1, “Benzimidazole inhibitors of fructose 1,6-bisphosphatase” (Metabasis Therapeutics, Inc., priority 1997, dated 2002).

Molecular target: T1, mouse liver FBPase (Mus musculus, UniProt Q9QXD6)
T1 construct: This partially purified fraction was used for enzyme assays; from tissue; host or cells: mouse liver, 45-75% ammonium sulfate fraction
T1 sequence (Q9QXD6 2-338 limits assumed): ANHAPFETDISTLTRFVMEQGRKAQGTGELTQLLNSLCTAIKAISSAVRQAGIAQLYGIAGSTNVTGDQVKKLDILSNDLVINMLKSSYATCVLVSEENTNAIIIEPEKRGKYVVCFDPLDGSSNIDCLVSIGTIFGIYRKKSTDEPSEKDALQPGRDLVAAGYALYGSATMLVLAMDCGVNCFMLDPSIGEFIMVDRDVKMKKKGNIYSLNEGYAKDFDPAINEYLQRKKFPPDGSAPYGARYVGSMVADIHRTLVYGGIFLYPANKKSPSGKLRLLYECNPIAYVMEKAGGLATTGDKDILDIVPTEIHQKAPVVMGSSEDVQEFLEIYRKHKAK
Assay: Inhibition of mouse liver FBPase
Assay type: biochemical
Details: partially purified mouse liver fraction
Description: Enzymatic activity was measured spectrophotometrically in reactions that coupled the formation of product (fructose 6-phosphate) to the reduction of dimethylthiazoldiphenyltetrazolium bromide (MTT) via NADP and phenazine methosulfate (PMS), using phosphoglucose isomerase and glucose 6-phosphate dehydrogenase as the coupling enzymes. Reaction mixtures (200 μl) were made up in 96-well microtitre plates, and consisted of 50 mM Tris-HCl, pH 7.4, 100 mM KCl, 5 mM EGTA, 2 mM MgCl2, 0.2 mM NADP, 1 mg/ml BSA, 1 mM MTT, 0.6 mM PMS, 1 unit/mL phosphoglucose isomerase, 2 units/mL glucose 6-phosphate dehydrogenase, and 0.150 mM substrate (fructose 1,6-bisphosphate). Inhibitor concentrations were varied from 0.01 μM to 10 μM.
Mouse liver FBPase was obtained by homogenizing freshly isolated mouse liver in 100 mM Tris-HCl buffer, pH 7.4, containing 1 mM EGTA, and 10% glycerol. […] This fraction was redissolved in the homogenization buffer and desalted on a PD-10 gel filtration column (Biorad) eluted with same. This partially purified fraction was used for enzyme assays. Both rat liver and mouse liver FBPase were assayed as described for human liver FBPase.

## 4-Amino-1-[(2-ethyl)pentyl]benzimidazol-2-yl-methylenoxymethyl phosphonic acid [Compound 12.57]
  IC50: > 20 µM
